The test system of this series is HLM. As to conditions: 300 μM OLZ; UGT2B10 (*1/*1) HLM.

As for `Cc1cc2c(s1)Nc1ccccc1N=C2N1CCN(C)CC1` [OLZ, Olanzapine], the “difference in formation of any OLZ glucuronide, UGT1A4 (*2/*2) versus UGT1A4 (*1/*1) HLM” value is “no significant difference”.

The values above are taken from US20110223597A1 (priority 2010, published 2011).
